Measured values as given in ChEMBL document CHEMBL1770096, “Structure-activity relationships of trans-substituted-propenoic acid derivatives on the nicotinic acid receptor HCA2 (GPR109A)” (Bioorg Med Chem Lett, 2011).

Sequences of proteins named here, by UniProt entry; tags and fusion partners are left off. A change or cut given only in a name is not applied to a line headed by its entry.
UniProt Q8TDS4: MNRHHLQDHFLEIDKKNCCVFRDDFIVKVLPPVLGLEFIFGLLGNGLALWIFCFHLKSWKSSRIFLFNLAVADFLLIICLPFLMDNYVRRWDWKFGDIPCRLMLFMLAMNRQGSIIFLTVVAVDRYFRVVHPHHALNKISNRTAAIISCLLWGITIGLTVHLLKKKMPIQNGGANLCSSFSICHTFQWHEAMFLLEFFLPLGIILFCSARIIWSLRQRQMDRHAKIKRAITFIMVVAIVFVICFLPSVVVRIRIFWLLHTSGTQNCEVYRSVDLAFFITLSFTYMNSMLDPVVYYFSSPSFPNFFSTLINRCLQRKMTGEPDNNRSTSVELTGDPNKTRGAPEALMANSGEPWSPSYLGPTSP

Molecular target: Hydroxycarboxylic acid receptor 2 (Homo sapiens) (UniProt Q8TDS4)
Experiment: Displacement of [3H]nicotinic acid from human GPR109a receptor expressed in human HEK293T cells at 10 uM by liquid scintillation counting
Format: cell-based
Settings: HEK-293T

SMILES	Activity [%]
O=C(O)/C=C/c1ccc2c(c1)OCO2	7
Cc1ccccc1/C=C/C(=O)O	0
Cc1ccc(/C=C/C(=O)O)cc1	2
O=C(O)/C=C/c1ccc(-c2ccc(Cl)cc2)o1	0
CCc1ccc(/C=C/C(=O)O)o1	14
C/C=C/C(=O)O	6
CC/C=C/C(=O)O	19
COc1ccccc1COC(=O)/C=C/C(=O)O	5
O=C(O)/C=C/C(=O)OC1CCCCC1	17
O=C(O)/C=C/c1cccnc1	3
O=C(O)/C=C/C(=O)OCc1ccccc1Br	0
O=C(O)/C=C/C(=O)Oc1ccccc1	10
O=C(O)/C=C/c1ccc(Br)o1	9
O=C(O)/C=C/c1ccccc1O	4
O=C(O)/C=C/C(=O)OCc1ccc(Br)cc1	21
O=C(O)/C=C/c1ccc[nH]1	7
Nc1ccc(/C=C/C(=O)O)cc1	2
Cc1cccc(/C=C/C(=O)O)c1	0
O=C(O)/C=C/C(=O)OCCCc1ccccc1	26

SMILES	Activity [%]
CC(C)=CC(=O)O	0
COc1ccc(COC(=O)/C=C/C(=O)O)cc1	7
O=C(O)/C=C/c1sccc1Br	6
O=C(O)/C=C/c1cccc(Cl)c1	6
O=C(O)/C=C/C(=O)OCc1ccc(Cl)cc1	14
O=C(O)/C=C/c1cccc(O)c1	0
O=C(O)C=C(c1ccccc1)c1ccccc1	0
O=C(O)/C=C/c1cccc([N+](=O)[O-])c1	0
CN(C)c1ccc(/C=C/C(=O)O)cc1	0
Cc1ccc(/C=C/C(=O)O)o1	7
O=C(O)/C=C/c1ccc(O)c(O)c1	4
COc1cccc(COC(=O)/C=C/C(=O)O)c1	4
Cc1ccc(COC(=O)/C=C/C(=O)O)cc1	30
O=C(O)/C=C/c1ccc(Cl)cc1	17
COc1ccc(/C=C/C(=O)O)cc1	0
C/C(=C\C(=O)O)c1ccccc1	1
CC(=O)N/C(=C/C(=O)O)c1ccccc1	0
O=C(O)/C=C/c1cc(Br)cs1	6
